Consider one compound from PMC11017388 (ACS Medicinal Chemistry Letters, 2024).

Sequences of proteins named here, by UniProt entry; tags and fusion partners are left off. Residues count along the entry.
UniProt P03952, 391-638 limits assumed: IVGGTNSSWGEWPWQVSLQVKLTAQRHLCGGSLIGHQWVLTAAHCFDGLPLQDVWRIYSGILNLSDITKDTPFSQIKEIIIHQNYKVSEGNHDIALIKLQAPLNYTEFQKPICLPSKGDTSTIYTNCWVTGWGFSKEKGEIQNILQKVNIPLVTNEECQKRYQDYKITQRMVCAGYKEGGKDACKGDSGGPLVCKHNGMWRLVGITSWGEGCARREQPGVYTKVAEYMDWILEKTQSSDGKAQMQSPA
UniProt P03952, 20-390 partner limits assumed: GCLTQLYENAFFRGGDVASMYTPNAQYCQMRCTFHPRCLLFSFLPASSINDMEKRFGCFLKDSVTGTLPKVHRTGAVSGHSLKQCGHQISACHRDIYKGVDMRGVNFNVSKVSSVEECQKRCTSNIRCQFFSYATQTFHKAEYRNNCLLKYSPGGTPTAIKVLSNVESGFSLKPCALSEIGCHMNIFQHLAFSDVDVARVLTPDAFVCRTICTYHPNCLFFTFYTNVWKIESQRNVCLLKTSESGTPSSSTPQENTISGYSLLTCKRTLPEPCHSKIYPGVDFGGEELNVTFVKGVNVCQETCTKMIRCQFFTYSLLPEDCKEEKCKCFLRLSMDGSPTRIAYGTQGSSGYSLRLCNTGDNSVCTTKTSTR

The target of series [1] is T1, PKa (Homo sapiens, UniProt P03952). Nature of the series: Compound dissociation assay (jump dilution). The settings on record: 62.5-fold dilution after 10 min preincubation; monitored over 600 s with fluorogenic substrate.
Series [2] has as its target T1, PKa. The settings on record: read-out: PKa IC50; reversible PKa inhibitor; cited from earlier work.

Regarding `N=C(N)N1CCC(NC(=O)[C@@H](CC(=O)[C@@H](CC2CCCCC2)NCC(=O)O)Cc2ccccc2)CC1` (single isomer, unassigned), the “Inhibitor dissociation from PKa” value in series [1] was “slow dissociation”. In addition, in series [2], the IC50 is 4 to 6 nM.
